Assay results: ChEMBL document CHEMBL1149220, “1-(2-Naphthyl)-1H-pyrazole-5-carboxylamides as potent factor Xa inhibitors. Part 2: A survey of P4 motifs” (Bioorg Med Chem Lett, 2004)

Protein sequences, listed by entry. Tags and fused reporters are not part of them. Residues count along the entry.
UniProt P00742, 41-179 limits assumed: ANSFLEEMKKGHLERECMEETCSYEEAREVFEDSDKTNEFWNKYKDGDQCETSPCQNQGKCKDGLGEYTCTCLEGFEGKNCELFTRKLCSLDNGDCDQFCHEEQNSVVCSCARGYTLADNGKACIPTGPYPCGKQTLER
UniProt P00742, 235-488 limits assumed: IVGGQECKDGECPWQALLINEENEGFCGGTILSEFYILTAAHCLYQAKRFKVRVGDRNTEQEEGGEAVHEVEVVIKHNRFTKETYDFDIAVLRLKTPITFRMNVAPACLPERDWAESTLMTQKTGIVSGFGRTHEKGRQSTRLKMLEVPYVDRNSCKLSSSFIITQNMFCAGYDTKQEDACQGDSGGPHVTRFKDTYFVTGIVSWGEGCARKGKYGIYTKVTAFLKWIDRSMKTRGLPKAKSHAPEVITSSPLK

Molecular target: Coagulation factor X (Homo sapiens, UniProt P00742)
Assay: Inhibitory concentration against human Coagulation factor X

Row | IC50 [µM] | SMILES
1 | 0.036 | Cc1cc(C(=O)Nc2ncc(-c3ccccc3S(N)(=O)=O)cn2)n(-c2cc3ccccc3cc2S(C)(=O)=O)n1
2 | 0.004 | Cc1cc(C(=O)Nc2ccc(-c3ccccc3S(C)(=O)=O)cc2)n(-c2ccc3cc(Cl)ccc3c2)n1
